Biological target: Carbonic anhydrase 1 (Homo sapiens, UniProt P00915)

Amino acid sequences for entries named in this document (tags omitted). A change or cut given only in a name is not applied to a line headed by its entry.
UniProt P00915: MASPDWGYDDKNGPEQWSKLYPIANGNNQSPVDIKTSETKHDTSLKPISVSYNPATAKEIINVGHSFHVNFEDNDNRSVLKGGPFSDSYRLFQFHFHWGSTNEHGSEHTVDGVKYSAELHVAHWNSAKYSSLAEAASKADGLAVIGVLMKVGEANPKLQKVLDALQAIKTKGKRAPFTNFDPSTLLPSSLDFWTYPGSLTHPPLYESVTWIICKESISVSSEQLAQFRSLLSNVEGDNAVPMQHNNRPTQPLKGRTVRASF

Compound | Ki
[Br-].[Na+] [SODIUM BROMIDE] | 4 mM
[Cl-].[Na+] [SODIUM CHLORIDE] | 6 mM
[F-].[Na+] [SODIUM FLUORIDE] | > 300 mM

— ChEMBL document CHEMBL1687944, “Purification and inhibition studies with anions and sulfonamides of an α-carbonic anhydrase from the Antarctic seal Leptonychotes weddellii” (Bioorg Med Chem, 2011)
